## scFv variants of Ab-14 (light chain) against a SARS-CoV-2 spike peptide

All variants were tested on one target, the spike HR2 peptide PDVDLGDISGINAS (SARS-CoV-2).

The variants keep the heavy chain, the linker and the frameworks of Ab-14 (scFv order VH, a 15-residue (Gly4Ser)3 linker, VL).
VH: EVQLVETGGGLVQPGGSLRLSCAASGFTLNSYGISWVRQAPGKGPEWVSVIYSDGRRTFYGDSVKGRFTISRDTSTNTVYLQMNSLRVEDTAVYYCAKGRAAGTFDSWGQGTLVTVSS
VL: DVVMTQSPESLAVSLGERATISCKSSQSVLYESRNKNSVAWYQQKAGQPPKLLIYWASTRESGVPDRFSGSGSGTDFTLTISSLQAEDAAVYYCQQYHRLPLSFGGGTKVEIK

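Phage display of a naive human antibody library on the peptide gave the parent. Variants in AAYL50 differ from the parent at up to three CDR positions; double and triple changes were sampled at random. Affinity was read by AlphaSeq, a pooled yeast mating assay with surface-displayed partners. The frequency of each diploid, read from paired DNA barcodes, reflects how well the two displayed proteins bind. A regression on co-assayed BCL2-family reference pairs converts the normalised counts of each replicate to an apparent Kd. Mating was done three times.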

Variants are written as CDR1, CDR2 and CDR3 of the light chain (limits as in the source). Parent: KSSQSVLYESRNKNSVA, WASTRES, QQYHRLPLS.
The read-out is the apparent dissociation constant on a log10 scale (nM): the lower, the stronger.
A mean of the replicates is given; it leaves out those without a signal.
"nd" means that the variant was in the library but no mating with the target was seen in any replicate; the authors take this as a sign of poor binding, and no number exists.

{"CDR-L1": "KTSQSVLYESRNKNSVA", "CDR-L2": "WASTRNS", "CDR-L3": "GQYHRLPLS", "log10 Kd (nM), mean": "1.67", "replicates with signal": "2/3"}
{"CDR-L1": "KSSQSVLYPSRNKNSVA", "CDR-L2": "WISTRES", "CDR-L3": "QQYHRLGLS", "log10 Kd (nM), mean": "3.91", "replicates with signal": "2/3"}
{"CDR-L1": "KSSQRVLYESRNKQSVN", "CDR-L2": "WASTRES", "CDR-L3": "QQYHRLPLS", "log10 Kd (nM), mean": "nd", "replicates with signal": "0/3"}
{"CDR-L1": "KSSQSVLYEMRNKNSVF", "CDR-L2": "WASTRES", "CDR-L3": "QQYHRLPLS", "log10 Kd (nM), mean": "4.48", "replicates with signal": "1/3"}
{"CDR-L1": "KSSQSIHYESRNKNSVA", "CDR-L2": "WATTRES", "CDR-L3": "QQYHRLPLS", "log10 Kd (nM), mean": "0.96", "replicates with signal": "3/3"}
{"CDR-L1": "KSSQSVLYESRRKNSVA", "CDR-L2": "WASTKES", "CDR-L3": "WQYHRLPLS", "log10 Kd (nM), mean": "2.79", "replicates with signal": "1/3"}
{"CDR-L1": "KSSQSVLYESRNKFSHA", "CDR-L2": "IASTRES", "CDR-L3": "QQYHRLPLS", "log10 Kd (nM), mean": "nd", "replicates with signal": "0/3"}
{"CDR-L1": "KSSQSVWYESRNKNSVA", "CDR-L2": "WASTRES", "CDR-L3": "IQYHRCPLS", "log10 Kd (nM), mean": "nd", "replicates with signal": "0/3"}
{"CDR-L1": "KSSQSVLYESRNKNSVA", "CDR-L2": "WASFRES", "CDR-L3": "QQYHKNPLS", "log10 Kd (nM), mean": "2.50", "replicates with signal": "3/3"}
{"CDR-L1": "KSSQSELYESRNKNLVA", "CDR-L2": "WASTRES", "CDR-L3": "QQYHRLPWS", "log10 Kd (nM), mean": "nd", "replicates with signal": "0/3"}
{"CDR-L1": "KESQSVLYESRNKNSVD", "CDR-L2": "WASTRES", "CDR-L3": "QQYHRFPLS", "log10 Kd (nM), mean": "5.08", "replicates with signal": "2/3"}
{"CDR-L1": "LSSQSVLYESRNKNVVA", "CDR-L2": "WASVRES", "CDR-L3": "QQYHRLPLS", "log10 Kd (nM), mean": "nd", "replicates with signal": "0/3"}
{"CDR-L1": "KSSQSVLYESRNKNSVA", "CDR-L2": "WASQRES", "CDR-L3": "QQYHRYPLQ", "log10 Kd (nM), mean": "nd", "replicates with signal": "0/3"}
{"CDR-L1": "KSSQSPLYEDRNKNSVR", "CDR-L2": "WASTRES", "CDR-L3": "QQYHRLPLS", "log10 Kd (nM), mean": "5.11", "replicates with signal": "1/3"}
{"CDR-L1": "KSSQSVLYESRNKNRVA", "CDR-L2": "WASTRES", "CDR-L3": "QQLHRLRLS", "log10 Kd (nM), mean": "4.40", "replicates with signal": "3/3"}
{"CDR-L1": "KKSQSVLYESRNGNSVA", "CDR-L2": "WASARES", "CDR-L3": "QQYHRLPLS", "log10 Kd (nM), mean": "4.57", "replicates with signal": "3/3"}
{"CDR-L1": "KSSQSVLYESQNKNSVA", "CDR-L2": "KASTRES", "CDR-L3": "QQYHRLYLS", "log10 Kd (nM), mean": "0.32", "replicates with signal": "3/3"}
{"CDR-L1": "KSSQSVLYESRNDNSQA", "CDR-L2": "WASTREW", "CDR-L3": "QQYHRLPLS", "log10 Kd (nM), mean": "nd", "replicates with signal": "0/3"}
{"CDR-L1": "KSSQSVLYESRNKNSVA", "CDR-L2": "WASTRES", "CDR-L3": "QLRHRLPLV", "log10 Kd (nM), mean": "nd", "replicates with signal": "0/3"}
{"CDR-L1": "KSPQSVLVESRNKNSVA", "CDR-L2": "WASTRES", "CDR-L3": "QQYHRWPLS", "log10 Kd (nM), mean": "nd", "replicates with signal": "0/3"}
{"CDR-L1": "ISSQSVLYESRNKNSVA", "CDR-L2": "WASTRES", "CDR-L3": "QQYQRLPLS", "log10 Kd (nM), mean": "1.21", "replicates with signal": "3/3"}
{"CDR-L1": "KSEQSVLYESRNKNIVA", "CDR-L2": "WAYTRES", "CDR-L3": "QQYHRLPLS", "log10 Kd (nM), mean": "4.65", "replicates with signal": "2/3"}
{"CDR-L1": "KSQQSVLYESRNKNSVA", "CDR-L2": "WASTRQS", "CDR-L3": "QQYHRLPLY", "log10 Kd (nM), mean": "1.41", "replicates with signal": "3/3"}
{"CDR-L1": "KSSQSVLYESRNKNSVA", "CDR-L2": "WASVRES", "CDR-L3": "QQYGRLPGS", "log10 Kd (nM), mean": "nd", "replicates with signal": "0/3"}
{"CDR-L1": "KSSQSILYESRPKPSVA", "CDR-L2": "WASTRES", "CDR-L3": "QQYHRLPLS", "log10 Kd (nM), mean": "nd", "replicates with signal": "0/3"}
{"CDR-L1": "KSSQSVLVESYNKNSVA", "CDR-L2": "WAWTRES", "CDR-L3": "QQYHRLPLS", "log10 Kd (nM), mean": "1.76", "replicates with signal": "3/3"}
{"CDR-L1": "KSSQSVLWESRNKNSVA", "CDR-L2": "WASTQEA", "CDR-L3": "QQYHRLPLS", "log10 Kd (nM), mean": "2.55", "replicates with signal": "3/3"}

Excerpt, the first 2 entries:

{"CDR-L1": "KTSQSVLYESRNKNSVA", "CDR-L2": "WASTRNS", "CDR-L3": "GQYHRLPLS", "log10 Kd (nM), mean": "1.67", "replicates with signal": "2/3"}
{"CDR-L1": "KSSQSVLYPSRNKNSVA", "CDR-L2": "WISTRES", "CDR-L3": "QQYHRLGLS", "log10 Kd (nM), mean": "3.91", "replicates with signal": "2/3"}

Nonspecific signal, from three strains lacking the peptide, appeared in 18% of pairings of library AAYL50, centred on 4.19 (5% of these signals below 2.99); values are not corrected for it.
For reference, the parent read 0.65 as the reference entry and 1.68 as a member of this library.

Values reported by Engelhart et al. 2022, doi:10.1038/s41597-022-01779-4 (FLAb copy).